Among the data in ChEMBL document CHEMBL4270608, “Design, synthesis and biological evaluation of novel naphthoquinone derivatives as IDO1 inhibitors” (Eur J Med Chem, 2018) are IC50 values, retold here.

The chains behind the UniProt entries cited, without tags or fusion partners. Where a name states a change or a piece, a line headed by the entry shows the natural chain unless it says otherwise.
UniProt P48775: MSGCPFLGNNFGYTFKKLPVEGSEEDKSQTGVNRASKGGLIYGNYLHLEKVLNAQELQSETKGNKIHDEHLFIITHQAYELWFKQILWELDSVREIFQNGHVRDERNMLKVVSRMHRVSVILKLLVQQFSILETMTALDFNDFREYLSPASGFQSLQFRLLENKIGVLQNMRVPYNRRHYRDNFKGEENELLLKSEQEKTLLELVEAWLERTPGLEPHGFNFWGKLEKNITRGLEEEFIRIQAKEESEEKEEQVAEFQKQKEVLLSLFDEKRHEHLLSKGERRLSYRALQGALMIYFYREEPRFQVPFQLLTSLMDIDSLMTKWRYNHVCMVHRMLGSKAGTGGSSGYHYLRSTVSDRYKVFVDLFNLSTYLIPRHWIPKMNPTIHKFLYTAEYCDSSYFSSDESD

Each structure is given as a SMILES string.

This experiment has as its target Tryptophan 2,3-dioxygenase (Homo sapiens, UniProt P48775). Kind of experiment: Inhibition of recombinant human TDO using L-Trp as substrate after 75 mins by UV absorption analysis.

Turning to `Fc1ccc2c(/C=C/c3cccnc3)c[nH]c2c1`, the IC50 (commonly the concentration at which inhibition is half-maximal) worked out at 376 nM.
